The values that follow come from ChEMBL document CHEMBL5338731, “Development of Neuropeptide Hemokinin-1 Analogues with Antimicrobial and Wound-Healing Activity” (J Med Chem, 2023).

Converted amounts (≈) assume the structure as drawn.

Format in all cases: functional
Experiment [1] deals with Escherichia coli. As to the kind of experiment: Antimicrobial activity against Escherichia coli ML-35 assessed as inhibition of bacterial growth incubated for 18 hrs by serial dilution method.
A further experiment deals with Bacillus subtilis. As to the kind of experiment: Antimicrobial activity against Bacillus subtilis ATCC 23857 assessed as inhibition of bacterial growth incubated for 18 hrs by serial dilution method.
Experiment [2] has as its system Pseudomonas aeruginosa. Briefly: Antimicrobial activity against Pseudomonas aeruginosa ATCC 27853 assessed as inhibition of bacterial growth incubated for 18 hrs by serial dilution method.
Experiment [3] deals with Staphylococcus aureus. Briefly: Antimicrobial activity against Staphylococcus aureus ATCC 29213 assessed as inhibition of bacterial growth incubated for 18 hrs by serial dilution method.
Experiment [4] relates to Pseudomonas aeruginosa. Briefly: Antimicrobial activity against Pseudomonas aeruginosa PAO1 assessed as inhibition of bacterial growth incubated for 18 hrs by serial dilution method.
The subject of experiment [5] is Staphylococcus aureus. Briefly: Antimicrobial activity against Staphylococcus aureus ATCC 25923 assessed as inhibition of bacterial growth incubated for 18 hrs by serial dilution method.
Experiment [6] deals with Escherichia coli. As to the kind of experiment: Antimicrobial activity against Escherichia coli ATCC 25922 assessed as inhibition of bacterial growth incubated for 18 hrs by serial dilution method.

With `CC[C@H](C)[C@H](NC(=O)CN)C(=O)NCC(=O)N[C@@H](C)C(=O)N[C@H](C(=O)N[C@@H](CC(C)C)C(=O)N[C@@H](CCCCN)C(=O)N[C@H](C(=O)N[C@@H](CC(C)C)C(=O)N[C@H](C(=O)N[C@H](C(=O)NCC(=O)N[C@@H](CC(C)C)C(=O)N1CCC[C@H]1C(=O)N[C@@H](C)C(=O)N[C@@H](CC(C)C)C(=O)N[C@H](C(=O)N[C@@H](CO)C(=O)N[C@@H](Cc1c[nH]c2ccccc12)C(=O)N[C@H](C(=O)N[C@@H](CCCCN)C(=O)N[C@@H](CCCNC(=N)N)C(=O)N[C@@H](CCCCN)C(=O)N[C@@H](CCCNC(=N)N)C(=O)N[C@@H](CCC(N)=O)C(=O)N[C@@H](CCC(N)=O)C(N)=O)[C@@H](C)CC)[C@@H](C)CC)[C@@H](C)O)[C@@H](C)O)C(C)C)C(C)C` [MELITTIN], the MIC (as a rule, the least concentration at which growth counts as inhibited) in the experiment on Escherichia coli [1] stood at 2 µM (≈ 5.69 µg/mL); with Bacillus subtilis it was 4 µM (≈ 11.4 µg/mL); in the experiment with Pseudomonas aeruginosa [2], 4 µM (≈ 11.4 µg/mL); with Staphylococcus aureus [3] it was 4 µM (≈ 11.4 µg/mL); in the experiment with Pseudomonas aeruginosa [4], 4 µM (≈ 11.4 µg/mL); in the experiment on Staphylococcus aureus [5] it was 4 µM (≈ 11.4 µg/mL). In addition, the MIC in the experiment with Escherichia coli [6] came to 2 µM (≈ 5.69 µg/mL).
